Consider eight compounds from article PMC3794980, “Identification of Conserved and HLA Promiscuous DENV3 T-Cell Epitopes” (PLoS Neglected Tropical Diseases, 2013).

Where two headings read alike, the source gives them in different places. A value given as a limit tells only on which side of the number the result lay.

Holding throughout (test): biochemical
What all share (assay type): binding

In assay [1] the target is DRB1*1302 (Homo sapiens, UniProt P01903+P01911, A100E/A169T/K41T/L162R/M171V/P40S/Q125H/Q178H/Q39Y/Q99D/R42S/S66N/T262R/V115G/W38E/Y61H).
The target in assay [2] is DRB1*1501 (Homo sapiens, UniProt P01903+P01911).
The target of assay [3] is DRB1*0301 (Homo sapiens, UniProt P01903+P01911, A100K/A102G/A103R/A169T/F55Y/I96L/K41T/L162R/M171V/P40S/Q125H/Q178H/Q39Y/R42S/S66N/T106N/T262R/W38E/Y61H).
Assay [4] concerns the target DRB1*0404 (Homo sapiens, UniProt P01903+P01911, A100R/A169T/F76Y/I96L/K127E/L162R/M171V/N62H/P40V/Q125Y/R42H/S133A/S149N/S66Y/V209L/W38E).
For assay [5], the target named is DRB1*0901 (Homo sapiens, UniProt P01903+P01911, A100R/A103E/D57H/D86V/F55Y/F60I/F76Y/I96F/K127E/L162R/M171V/P40D/Q125H/Q99R/R33Q/R42F/S133A/S66N/T210M/V115G/W38K/Y107V/Y59G/Y89S).
Assay [6] deals with DRB1*0701 (Homo sapiens, UniProt P01903+P01911, A100R/A102G/A103Q/D57E/D86V/E43K/F76Y/K127E/L162R/M171V/P40G/Q125H/Q99D/R33Q/R42Y/R54Q/S133A/S66F/T210M/V115G/Y107V/Y59L/Y89S).
Assay [7] addresses DRB1*0401 (Homo sapiens, UniProt P01903+P01911, A100K/A169T/F76Y/I96L/K127E/L162R/M171V/N62H/P40V/Q125Y/R42H/S133A/S149N/S66Y/V115G/V209L/W38E).
The target of assay [8] is DRB1*0405 (Homo sapiens, UniProt P01903+P01911, A100R/A169T/D86S/F76Y/I96L/K127E/L162R/M171V/N62H/P40V/Q125Y/R42H/S133A/S149N/S66Y/V115G/V209L/W38E).
Assay [9] concerns the target DRB1*0802 (Homo sapiens, UniProt P01903+P01911, A100R/A103L/A169T/F76Y/H45Y/I96F/K41T/L162R/M171V/P40S/Q125H/Q178H/Q39Y/Q99D/R218S/R42G/S66Y/V115G/W38E).
For assay [10], the target named is DRB1*0101 (Homo sapiens, UniProt P01903+P01911, A100R/D57E/F55L/F60I/F76Y/I96L/L162R/M171V/P40L/Q125E/R42F/V115G/Y59C).
Assay [11] deals with DRB1*1101 (Homo sapiens, UniProt P01903+P01911, A100R/A169T/A87E/I96F/K41T/L162R/M171V/P40S/Q125H/Q178H/Q39Y/Q99D/R42S/S66Y/T262R/V115G/W38E).
[12] abbreviates: competitive inhibition of radiolabeled standard peptide, '-' distinct from ND, read-out: Binding Affinity (nM) DRB1*1302.
Setting [13] is: read-out: Binding Affinity (nM) DRB1*0301.
Where [14] appears, read: read-out: Binding Affinity (nM) DRB1*0404.
Where [15] appears, read: competitive inhibition of radiolabeled standard peptide, '-' distinct from ND, read-out: Binding Affinity (nM) DRB1*0901.
Where [16] appears, read: read-out: Binding Affinity (nM) DRB1*0405.
Setting [17] is: competitive inhibition of radiolabeled standard peptide, DRB1*1302, read-out: Binding Affinity (nM) DRB1*1302.
Setting [18] is: competitive inhibition of radiolabeled standard peptide, DRB1*0901, read-out: Binding Affinity (nM) DRB1*0901.
The mark [19] stands for this setting: read-out: Binding Affinity (nM) DRB1*1101.

On to `CC[C@H](C)[C@H](NC(=O)[C@@H](N)CCSC)C(=O)N[C@H](C(=O)N1CCC[C@H]1C(=O)N[C@@H](CCCCN)C(=O)N[C@@H](CO)C(=O)N[C@@H](CC(C)C)C(=O)N[C@@H](C)C(=O)NCC(=O)N1CCC[C@H]1C(=O)N[C@H](C(=O)N[C@@H](CO)C(=O)N[C@@H](CCC(N)=O)C(=O)N[C@@H](Cc1c[nH]cn1)C(=O)N[C@@H](CC(N)=O)C(=O)O)[C@@H](C)CC)[C@@H](C)CC` [NS1 241-255], for which the IC50 in assay [1] (setting [12]) was 5630 nM; in assay [2], 1.07 µM; in assay [3] (setting [13]), above 20000 nM; in assay [4] (setting [14]) it was above 20000 nM; in assay [5] (setting [15]), 1310 nM; in [6] it was 7900 nM. In addition, the IC50 in assay [7] was 9210 nM; in [8] it was 9390 nM; in assay [9] it was 7050 nM; in assay [10], 0.051 µM; in assay [11], 6920 nM.

Consider `CC[C@H](C)[C@H](NC(=O)[C@@H](N)CCCCN)C(=O)N[C@H](C(=O)N[C@@H](CCC(N)=O)C(=O)N[C@@H](Cc1c[nH]c2ccccc12)C(=O)N[C@@H](CC(C)C)C(=O)N[C@@H](CCC(=O)O)C(=O)N[C@H](C(=O)N[C@@H](CCCCN)C(=O)NCC(=O)N[C@H](C(=O)N[C@@H](CCC(=O)O)C(=O)N[C@@H](CCCNC(=N)N)C(=O)N[C@@H](CC(C)C)C(=O)N[C@@H](CCCCN)C(=O)N[C@@H](CCCNC(=N)N)C(=O)N[C@@H](CCSC)C(=O)O)C(C)C)[C@@H](C)O)[C@@H](C)O` [NS5 642-658], for which the IC50 in [1] (read-out: Binding Affinity (nM) DRB1*1302) was above 20000 nM; in [2] it was 0.059 µM; in assay [3], 775 nM; in assay [4] (setting [14]), above 20000 nM; in [5], 2430 nM; in [6], 24 nM. The IC50 in [7] was 6300 nM; in [8] (setting [16]), above 20000 nM; in [9] it was 1500 nM; in assay [10], 0.166 µM; in assay [11], 665 nM.

`CC[C@H](C)[C@H](NC(=O)[C@H](CC(C)C)NC(=O)[C@H](CCC(=O)O)NC(=O)[C@H](CC(=O)O)NC(=O)[C@H](CCC(N)=O)NC(=O)[C@@H]1CCCN1C(=O)[C@H](CCCNC(=N)N)NC(=O)[C@H](CS)NC(=O)[C@@H]1CCCN1C(=O)[C@@H](NC(=O)[C@@H](NC(=O)[C@H](CC(C)C)NC(=O)[C@H](CCCCN)NC(=O)[C@H](CCCNC(=N)N)NC(=O)CNC(=O)[C@H](CC(=O)O)NC(=O)[C@@H](N)CCCCN)C(C)C)C(C)C)C(=O)O` [NS5 719-735]: the IC50 came to 229 nM in [1] (setting [17]); 1.95 µM in assay [2]; 44 nM in assay [3]; 190 nM in assay [4]; 5510 nM in assay [5] (setting [18]); 5560 nM in assay [6]. The IC50 was above 20000 nM in [7] (read-out: Binding Affinity (nM) DRB1*0401); 22 nM in assay [8]; 9360 nM in [9]; 0.214 µM in [10]; 1030 nM in assay [11].

As to `CC(C)C[C@H](NC(=O)[C@@H](NC(=O)[C@H](Cc1ccccc1)NC(=O)[C@@H](NC(=O)[C@H](CC(N)=O)NC(=O)[C@@H](N)[C@@H](C)O)[C@@H](C)O)C(C)C)C(=O)N[C@@H](CCCCN)C(=O)N[C@@H](CCCCN)C(=O)N[C@@H](CCC(=O)O)C(=O)N[C@H](C(=O)N[C@@H](CO)C(=O)N[C@@H](CCC(=O)O)C(=O)N[C@H](C(=O)N[C@@H](CCC(N)=O)C(=O)N[C@@H](Cc1c[nH]cn1)C(=O)O)[C@@H](C)O)C(C)C` [Envelope 301-315], the IC50 in assay [1] (setting [12]) was above 20000 nM; in assay [2], 4.24 µM; in assay [3], 2310 nM; in [4] it was 4880 nM; in assay [5] (setting [15]), above 20000 nM; in assay [6] (read-out: Binding Affinity (nM) DRB1*0701), above 20000 nM. Moreover, the IC50 was 27 nM in assay [7]; 2570 nM in assay [8]; 59 nM in assay [9]; 2.03 µM in assay [10]; 775 nM in assay [11].

Turning to `CSCC[C@H](NC(=O)[C@H](C)NC(=O)CNC(=O)[C@H](CCC(=O)O)NC(=O)[C@H](CCC(N)=O)NC(=O)[C@H](CO)NC(=O)CNC(=O)[C@@H](N)CC(C)C)C(=O)N[C@@H](Cc1c[nH]cn1)C(=O)N[C@H](C(=O)N[C@@H](C)C(=O)N[C@@H](CC(C)C)C(=O)N[C@H](C(=O)NCC(=O)N[C@@H](C)C(=O)O)[C@@H](C)O)[C@@H](C)O`, the IC50 in assay [1] was 6610 nM; in assay [2], 6.06 µM; in [3] (setting [13]) it was above 20000 nM; in [4], 17100 nM; in assay [5], 3720 nM; in assay [6], 2310 nM. Moreover, the IC50 in assay [7] was 4330 nM; in [8], 13200 nM; in assay [9], 3650 nM; in assay [10], 0.588 µM; in [11] (setting [19]) it was above 20000 nM.

Turning to `CC[C@H](C)[C@H](NC(=O)[C@@H](NC(=O)[C@H](CC(=O)O)NC(=O)[C@H](CCSC)NC(=O)[C@@H](NC(=O)[C@@H](NC(=O)CNC(=O)[C@H](CCCCN)NC(=O)[C@@H]1CCCN1C(=O)[C@@H](NC(=O)[C@@H]1CCCN1C(=O)[C@H](CCCNC(=N)N)NC(=O)[C@H](CCC(N)=O)NC(=O)[C@@H](NC(=O)[C@H](CCCCN)NC(=O)[C@@H](NC(=O)[C@@H](N)C(C)C)C(C)C)C(C)C)[C@@H](C)O)[C@@H](C)O)C(C)C)[C@@H](C)CC)C(=O)O` [NS5 576-592], the IC50 was found to be 297 nM in assay [1] (setting [17]); 1.51 µM in [2]; 5250 nM in [3]; 9190 nM in [4]; 13000 nM in assay [5] (setting [18]); 4540 nM in assay [6]. Besides, the IC50 was 3780 nM in [7]; above 20000 nM in assay [8] (setting [16]); 1170 nM in assay [9]; 1.33 µM in [10]; 1210 nM in [11].

For `CC[C@H](C)[C@H](NC(=O)[C@@H]1CCCN1C(=O)[C@H](CO)NC(=O)CNC(=O)[C@H](CO)NC(=O)[C@@H](NC(=O)CNC(=O)[C@@H]1CCCN1C(=O)[C@H](CCCCN)NC(=O)[C@H](Cc1ccccc1)NC(=O)[C@H](CC(=O)O)NC(=O)[C@H](CC(C)C)NC(=O)[C@H](C)NC(=O)[C@@H](NC(=O)[C@H](C)N)[C@@H](C)CC)[C@@H](C)O)C(=O)O` [NS3 125-139], the IC50 turned out to be 5440 nM in assay [1]; 15.6 µM in [2]; 47 nM in assay [3]; 16300 nM in [4]; 2490 nM in assay [5]; 2120 nM in assay [6]. The IC50 in assay [7] is 3850 nM; in [8], 13100 nM; in assay [9] (read-out: Binding Affinity (nM) DRB1*0802) it was above 20000 nM; in assay [10], 3.33 µM; in [11] (setting [19]), above 20000 nM.

`CC[C@H](C)[C@H](NC(=O)[C@@H](NC(=O)CN)[C@@H](C)O)C(=O)N[C@@H](CC(C)C)C(=O)N[C@H](C(=O)N[C@@H](CCCCN)C(=O)N[C@H](C(=O)N[C@@H](CCC(=O)O)C(=O)N[C@@H](Cc1ccc(O)cc1)C(=O)N[C@@H](CCCCN)C(=O)NCC(=O)N[C@@H](CCC(=O)O)C(=O)N[C@@H](CC(=O)O)C(=O)N[C@@H](C)C(=O)N1CCC[C@H]1C(=O)O)C(C)C)C(C)C` [Envelope 316-330]: the IC50 in [1] is 10600 nM; in assay [2], 0.361 µM; in [3] it was 3720 nM; in [4] (setting [14]) it was above 20000 nM; in [5], 10200 nM; in assay [6] it was 4770 nM. For the same compound, the IC50 in assay [7] is 4510 nM; in assay [8] it was 8020 nM; in [9], 2460 nM; in assay [10], 2.46 µM; in [11], 153 nM.
